Values quoted from earlier work in PMC4734687, “Peptide-Based Optical uPAR Imaging for Surgery: In Vivo Testing of ICG-Glu-Glu-AE105” (PLoS ONE, 2016).

Chains of the proteins cited; added tags and fusions are not shown. Residues count along the entry.
UniProt Q03405, 23-305 limits assumed: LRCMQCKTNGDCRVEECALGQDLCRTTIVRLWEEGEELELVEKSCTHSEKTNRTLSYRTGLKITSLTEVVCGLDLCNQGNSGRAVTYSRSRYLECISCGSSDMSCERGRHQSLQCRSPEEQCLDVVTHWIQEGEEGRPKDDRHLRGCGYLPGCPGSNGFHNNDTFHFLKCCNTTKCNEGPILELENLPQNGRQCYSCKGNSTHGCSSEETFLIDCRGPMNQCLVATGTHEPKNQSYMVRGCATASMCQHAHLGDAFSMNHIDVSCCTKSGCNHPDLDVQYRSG

Molecular target: uPAR (Homo sapiens, UniProt Q03405)
Conditions: read-out: IC50 for uPAR binding of unmodified AE105; comparison value for unmodified peptide; cited from earlier work
Procedure: Photophysical properties of ICG-Glu-Glu-AE105 was compared to ICG. The absorption spectrum of ICG-AE105 was slightly broadened as compared to the absorption spectrum of ICG, while the fluorescence and excitation spectra were identical for ICG and ICG-AE105 (Fig 1C). Additionally the binding of ICG-Glu-Glu-AE105 to purified uPAR was measured and yielded an IC50 ≈ 134 nM compared to 20 nM for the unmodified AE105 [21] (Fig 1B)

In the case of CC(C)C[C@H](NC(=O)[C@H](Cc1ccc(O)cc1)NC(=O)[C@@H](CCCNC(=N)N)NC(=O)[C@@H](CO)NC(=O)[C@H](Cc1ccccc1)NC(=O)[C@H](CC1CCCCC1)NC(=O)[C@@H](N)CC(=O)O)C(=O)N[C@@H](Cc1c[nH]c2ccccc12)C(=O)N[C@@H](CO)C(=O)O, the IC50 is listed as 0.02 µM.
